According to patent publication US10729671B2, “Zinc complexes of hydrazones and (thio)semicarbazones and their use for the treatment of cancer” (RUTGERS, THE STATE UNIVERSITY OF NEW JERSEY, priority 2015, dated 2020):

What follows are compounds tested on TOV112D cells (assay: Intracellular [Zn2+]free imaging with FluoZin-3-AM in TOV112D cells). Settings: TOV112D (ovarian cancer, p53-R175H), FZ3-AM, complete media, confocal microscopy.
Assay type: cell-based

SMILES | increase of intracellular [Zn2+]free
O=C(O)CN(CC(=O)O)CC(=O)O [NTA] | did not
C/C(=N\NC(=O)N1CCC1)c1ccccn1 [Compound A6] | did not
C/C(=N\NC(=S)N1CCC1)c1ccccn1 [ZMC1] | increased
